Screening results from PubChem.
miR-21 reporter: raises the signal of a miR-21 reporter | HeLa miR-21 FLuc reporter, luciferase, 48 h | Potency, µM (highest dose often 38.3 µM), for inactives: at the highest dose reporter change, positive = more light | 340,000 tested, under 10 active | AID 2288; active = well fitted rising curve with a large enough effect; inconclusive = small, poorly fitted or top-dose-only effect; inactive = no such curve, though single readings can be large or run the other way;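 also: % of control where 0% means no effect; miR-21 action dims this reporter so a rising signal means less miR-21 action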
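Using DMEM plus 10% FBS, HeLa miR-21-FLuc cells are incubated with test compounds (final up to about 40uM) for 48 hours; firefly luciferase signal is then imaged following reagent-mediated lysis.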
Nrf2 activator: activates Nrf2 signaling | AREc32 ARE-luciferase reporter (MCF7-derived line), luminescence, 24 h | Potency, µM (highest dose often 46.1 µM), for the others: top-dose activation, hits mostly activators | 0.31% of 410,000 active | AID 624171; further: potency means the concentration at half of the fitted maximal effect; % of control where 0% means no effect; nearly all actives have a fitted effect of over 65% in size
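AREc32_Fluc, 1000 cells/well, OPTI-MEM + 5% FBS, o/n 37 deg C 5% CO2; 23 nL cpd by pin tool, 24 hr; Steady-Glo 30 min RT, luminescence.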
ClpP mod: qHTS Assay for Activators of ClpP. ATP-dependent Clp protease proteolytic subunit (Bacillus subtilis (strain 168)), P80244. purified B. subtilis ClpP, FRET peptide cleavage, 20 min. Potency, µM (series often up to 57.5 µM), for the others: at the highest dose activity change, negative = active. 1.9% of 340,000 active. AID 651965, 2013; active means well fitted falling curve with a large enough effect; inconclusive means small, poorly fitted or top-dose-only effect; inactive means no such curve, though single readings can be large or run the other way; further: potency means the concentration at half of the fitted maximal effect; the source files actives as falling curves though it sought activators and does not explain the sign; nearly all actives have a fitted effect of over 65% in size
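FRET quenching reversal measured ClpP activation: 10 microg/mL B. subtilis ClpP at pH 8 with the FRET-FV decapeptide, read at 430 nm after 320 nm excitation. The 20-min minus 0-min signal was scaled between DMSO/no-enzyme wells and ADEP (5.8 microM final).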
Nrf2 inh: blocks Nrf2 signaling; A549 ARE-Fluc reporter, luciferase luminescence, 18-24 h; Potency, µM (top dose mostly 46 µM), for the others: at the highest dose activity change, negative = inhibition, actives largely listed as inhibitors; 2.1% of 360,000 active; further: potency means the concentration at half of the fitted maximal effect; on the % scale 0 is the no-effect control and ±100 the full control effect; nearly all actives have a fitted effect of over 60% in size
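Nrf2 function is reported as luminescence of an ARE-controlled luciferase in A549 cells. Compounds were tested at several concentrations, and a CellTiter-Fluor read on the same wells flagged cytotoxicity.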
p53 reactivation: mutant p53 re-activation in reporter cells. H1299 p53-A138V BP100-luciferase reporter, luminescence, 24 h. 0.063% of 320,000 active. Potency, µM (doses to about 92.2 µM), without a hit: top-dose activity change, positive = activation, usual class: activators; further: potency means the concentration at half of the fitted maximal effect; % of control where 0% means no effect; nearly all actives have a fitted effect of over 45% in size
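p53-null H1299 cells stably carrying temperature-sensitive p53-A138V and a BP100-luciferase reporter were pinned with compounds (4-point, 1:5 series) and held 24 hrs at 37 deg C. Luminescence was read 10 min after detection reagent.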
A549 viability: counter-screen for Nrf2 inhibitors: cytotoxicity in A549 cells | Potency, µM (series often up to 46 µM), for the others: at the top dose activity change, negative = cytotoxicity, actives largely listed as inhibitors | A549 ARE-Fluc cells, CellTiter-Fluor viability, 18-24 h | 0.16% of 390,000 active; further: potency means the concentration at half of the fitted maximal effect; on the % scale 0 is the no-effect control and ±100 the full control effect
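A549 ARE_Fluc cells in 5% FBS OPTI-MEM were exposed to compounds in concentration-response for 18-24 h at 37 deg C. Viability was read by CellTiter-Fluor fluorescence (Ex 405/Em 525) after 30 min, before the luciferase read.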
* = called active by the depositor; ! = a repeat was not active; [ ] = remark or other dose. Only some compounds are listed: those with a hit (about 3.7% of all), similar ones and a draw of the others. Unless noted, the call rests on the fitted dose curve; in most records, active means well fitted curve in the direction sought with a large enough effect; inconclusive means small, poorly fitted or top-dose-only effect, or another doubt; inactive means no such curve, though single readings can be large; an effect the other way counts as inactive or inconclusive.

Screening N#Cc1nc(Nc2cc(F)cc(F)c2)c2ncn(CCCO)c2n1 returned Nrf2 inh 14% and A549 viability -5%.
Cc1cc(C)c(S(=O)(=O)c2ccccc2)c(OC(=O)c2c(Cl)cc(Cl)cc2Cl)n1 was read as miR-21 reporter 1%, Nrf2 activator 3%, ClpP mod -3%, Nrf2 inh 16µM*, p53 reactivation 7% and A549 viability inconclusive.
Cc1cc(C)c(S(=O)(=O)c2ccccc2)c(OC(=O)c2c(F)cccc2F)n1 was read as miR-21 reporter 1%, Nrf2 activator 0%, Nrf2 inh inconclusive, p53 reactivation -2% and A549 viability -3%.
CCCCN(CC)CCCNC(=O)c1c(C)oc2ncnc(N3CCOCC3)c12 was read as miR-21 reporter -2%, Nrf2 activator 1%, ClpP mod -1%, Nrf2 inh inconclusive and A549 viability 7%.
`Cc1cc(C(=O)NN=C2C3CC4CC(C3)CC2C4)c2ccccc2n1` gave miR-21 reporter 17%, Nrf2 activator -1%, ClpP mod -1%, Nrf2 inh inconclusive, p53 reactivation -5% and A549 viability -19%.
O=C(NN=C1C2CC3CC(C2)CC1C3)c1cc(Cl)ccc1O was read as miR-21 reporter -20%, Nrf2 activator 2%, ClpP mod 28µM*, p53 reactivation 2% and A549 viability -4%.
COc1ccc(-c2noc(CN(C(C)C)S(=O)(=O)c3ccc(Br)cc3)n2)cc1 was read as miR-21 reporter 10%, Nrf2 activator 1%, ClpP mod -1%, Nrf2 inh -23% and A549 viability 0%.
For COc1cccc(C#CC2=CC(=O)C[C@H](c3ccc(F)cc3)C2)c1 the results were Nrf2 activator 16µM* and ClpP mod -3%.
`O=C1C=C(C#Cc2ccc(Oc3ccccc3)cc2)C[C@@H](c2ccc(F)cc2)C1` gave Nrf2 activator 25% and ClpP mod 13%.
Cc1ccccc1Nc1nc(C#N)nc(NC2CCCC2)n1 was read as Nrf2 inh 9.2µM* and A549 viability -18%.
Screening N#Cc1nc(Nc2cccc3ccccc23)nc(NC2CCCC2)n1 returned Nrf2 inh 18µM* and A549 viability -23%.
For N#Cc1nc(Nc2ccccc2)nc(NC2CCCC2)n1 the results were Nrf2 inh -15% and A549 viability -7%.

The closing 4 compounds of the section before come first, to join the parts.
`O=C1C=C(C#Cc2ccc(Oc3ccccc3)cc2)C[C@@H](c2ccc(F)cc2)C1` gave Nrf2 activator 25% and ClpP mod 13%.
Cc1ccccc1Nc1nc(C#N)nc(NC2CCCC2)n1 was read as Nrf2 inh 9.2µM* and A549 viability -18%.
Screening N#Cc1nc(Nc2cccc3ccccc23)nc(NC2CCCC2)n1 returned Nrf2 inh 18µM* and A549 viability -23%.
For N#Cc1nc(Nc2ccccc2)nc(NC2CCCC2)n1 the results were Nrf2 inh -15% and A549 viability -7%.
Screening COc1ccc(C(=O)Oc2c(Sc3ccc(C)cc3)c(C)nn2C(C)(C)C)c(OC)c1 returned miR-21 reporter inconclusive, Nrf2 activator -1%, ClpP mod -6%, Nrf2 inh 1%[9.27 µM] and A549 viability 0%.
For CC(/C=C/c1ccccc1)=N\Nc1nc2c(c(=O)[nH]c(=O)n2C)n1CCO the results were miR-21 reporter -2%, Nrf2 activator 28%, ClpP mod -3%, Nrf2 inh -12%, p53 reactivation 2% and A549 viability 3%.
Screening CCCn1c(N/N=C\C=C\c2ccccc2)nc2c1c(=O)[nH]c(=O)n2C returned miR-21 reporter -4%, Nrf2 activator 10%, ClpP mod 0%, Nrf2 inh 9.2µM*, p53 reactivation -1% and A549 viability 0%.
For CC(C)CC(=O)NC(=S)Nc1cccc(NC(=O)c2ccccc2)c1 the results were miR-21 reporter 0%, Nrf2 activator 4%, ClpP mod 1%, Nrf2 inh 15µM*, p53 reactivation -2% and A549 viability -16%.
For Cc1cccc(NC(=S)N/C(=N/S(=O)(=O)c2ccccc2)c2ccccc2)c1 the results were miR-21 reporter -44%, Nrf2 activator inconclusive, ClpP mod 2.2µM*!, Nrf2 inh inconclusive, p53 reactivation inconclusive and A549 viability 2%.
`O=C(Nc1ccc(NC(=S)NC(=O)c2ccccc2Cl)cc1)c1cccc(Cl)c1` gave Nrf2 activator 5%, ClpP mod -1%, Nrf2 inh 18µM* and A549 viability 2%.
For CC(=O)c1cccc(NC(=S)NC2CCCCC2)c1 the results were miR-21 reporter -17%, Nrf2 activator 1%, ClpP mod 14µM*, Nrf2 inh 6%, p53 reactivation 14% and A549 viability 8%.
For CCCC(=O)NC(=S)Nc1cccc(NC(=O)c2ccccc2)c1 the results were miR-21 reporter -7%, Nrf2 activator 5%, Nrf2 inh inconclusive, p53 reactivation -4% and A549 viability 1%.
O=S(=O)(NCCc1nnc2ccc(SCc3c(F)cccc3Cl)nn12)c1ccccc1 was read as miR-21 reporter 4%, Nrf2 activator 1%, ClpP mod -19%, Nrf2 inh inconclusive and A549 viability inconclusive.
`S=C(Nc1ccc(Nc2ccccc2)cc1)NC1CCCCCC1` gave miR-21 reporter 27%, Nrf2 activator 4%, Nrf2 inh 18µM*, p53 reactivation -2% and A549 viability inconclusive.
CCCCOc1cccc(C(=O)NNC(=S)NC2CCCCC2)c1 was read as miR-21 reporter -2%, Nrf2 activator 0%, ClpP mod 25µM*, Nrf2 inh inconclusive, p53 reactivation inconclusive and A549 viability -23%.
For CCOc1cccc(C(=O)NC2CCCCC2)c1 the results were miR-21 reporter -47%, Nrf2 activator 0%, ClpP mod 0%, Nrf2 inh inconclusive, p53 reactivation inconclusive and A549 viability 3%.
CC(=O)c1cccc(NC(=S)NC(=O)c2cccc(C)c2)c1 was read as miR-21 reporter -47%, Nrf2 activator 5%, ClpP mod 16µM*, Nrf2 inh 28%, p53 reactivation inconclusive and A549 viability 5%.
`COc1cc2nc(N3CCCN(C)CC3)nc(NC3CCN(C)CC3)c2cc1OC` gave ClpP mod 4%.
For COCCNC(=O)c1ccc2c(=O)n(CCOC)c(=O)[nH]c2c1 the results were miR-21 reporter 8%, Nrf2 activator 0%, ClpP mod 25µM*, Nrf2 inh -12%, p53 reactivation -10% and A549 viability -4%.
CCCCNC(=O)CCCCCn1c(=O)[nH]c2cc(C(=O)OC)ccc2c1=O was read as miR-21 reporter 2%, Nrf2 activator 0%, ClpP mod -2%, Nrf2 inh 9%, p53 reactivation -2% and A549 viability 1%.
For COC(=O)c1ccc2c(=O)n(CCCCCC(=O)O)c(=O)[nH]c2c1 the results were miR-21 reporter 18%, Nrf2 activator -3%, ClpP mod 28µM*, Nrf2 inh -11%, p53 reactivation -10% and A549 viability 4%.
